Assay results from ChEMBL document CHEMBL4706658, “Discovery and Biological Evaluation of N-Methyl-pyrrolo[2,3-b]pyridine-5-carboxamide Derivatives as JAK1-Selective Inhibitors” (J Med Chem, 2021).

Protein sequences, listed by entry. Tags and fused reporters are not part of them. Lines headed by an entry give the natural chain unless they say otherwise; changes in a name come on top.
UniProt P23458: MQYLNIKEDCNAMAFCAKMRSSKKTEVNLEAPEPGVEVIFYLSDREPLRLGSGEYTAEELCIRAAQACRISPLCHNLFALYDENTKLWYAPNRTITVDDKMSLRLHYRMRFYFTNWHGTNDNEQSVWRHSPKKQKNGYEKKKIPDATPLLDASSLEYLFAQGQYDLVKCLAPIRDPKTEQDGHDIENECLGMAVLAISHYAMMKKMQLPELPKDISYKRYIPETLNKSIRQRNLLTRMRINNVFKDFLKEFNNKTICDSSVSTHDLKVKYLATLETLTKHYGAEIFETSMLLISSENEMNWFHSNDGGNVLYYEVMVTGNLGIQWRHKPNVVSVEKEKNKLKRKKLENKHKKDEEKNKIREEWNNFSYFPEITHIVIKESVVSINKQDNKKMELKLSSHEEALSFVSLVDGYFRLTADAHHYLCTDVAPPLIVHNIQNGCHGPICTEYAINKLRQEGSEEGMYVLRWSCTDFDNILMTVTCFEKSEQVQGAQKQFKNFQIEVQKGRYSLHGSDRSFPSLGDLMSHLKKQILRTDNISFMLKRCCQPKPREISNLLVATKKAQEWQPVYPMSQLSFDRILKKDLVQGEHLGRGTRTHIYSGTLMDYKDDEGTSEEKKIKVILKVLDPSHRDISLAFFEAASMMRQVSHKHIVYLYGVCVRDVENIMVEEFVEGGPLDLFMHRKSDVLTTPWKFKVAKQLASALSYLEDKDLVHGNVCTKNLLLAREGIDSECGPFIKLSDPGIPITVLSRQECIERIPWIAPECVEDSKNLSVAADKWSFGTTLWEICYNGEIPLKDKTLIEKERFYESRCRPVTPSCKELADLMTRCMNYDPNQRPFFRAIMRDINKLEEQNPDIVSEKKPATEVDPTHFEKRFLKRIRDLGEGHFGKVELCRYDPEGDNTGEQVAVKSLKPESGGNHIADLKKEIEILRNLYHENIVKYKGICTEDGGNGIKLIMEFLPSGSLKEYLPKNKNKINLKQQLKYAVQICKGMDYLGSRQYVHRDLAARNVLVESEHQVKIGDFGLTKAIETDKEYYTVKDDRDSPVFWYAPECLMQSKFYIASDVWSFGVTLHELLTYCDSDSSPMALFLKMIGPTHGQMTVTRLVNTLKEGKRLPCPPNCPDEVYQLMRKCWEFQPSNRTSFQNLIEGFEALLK
UniProt O60674: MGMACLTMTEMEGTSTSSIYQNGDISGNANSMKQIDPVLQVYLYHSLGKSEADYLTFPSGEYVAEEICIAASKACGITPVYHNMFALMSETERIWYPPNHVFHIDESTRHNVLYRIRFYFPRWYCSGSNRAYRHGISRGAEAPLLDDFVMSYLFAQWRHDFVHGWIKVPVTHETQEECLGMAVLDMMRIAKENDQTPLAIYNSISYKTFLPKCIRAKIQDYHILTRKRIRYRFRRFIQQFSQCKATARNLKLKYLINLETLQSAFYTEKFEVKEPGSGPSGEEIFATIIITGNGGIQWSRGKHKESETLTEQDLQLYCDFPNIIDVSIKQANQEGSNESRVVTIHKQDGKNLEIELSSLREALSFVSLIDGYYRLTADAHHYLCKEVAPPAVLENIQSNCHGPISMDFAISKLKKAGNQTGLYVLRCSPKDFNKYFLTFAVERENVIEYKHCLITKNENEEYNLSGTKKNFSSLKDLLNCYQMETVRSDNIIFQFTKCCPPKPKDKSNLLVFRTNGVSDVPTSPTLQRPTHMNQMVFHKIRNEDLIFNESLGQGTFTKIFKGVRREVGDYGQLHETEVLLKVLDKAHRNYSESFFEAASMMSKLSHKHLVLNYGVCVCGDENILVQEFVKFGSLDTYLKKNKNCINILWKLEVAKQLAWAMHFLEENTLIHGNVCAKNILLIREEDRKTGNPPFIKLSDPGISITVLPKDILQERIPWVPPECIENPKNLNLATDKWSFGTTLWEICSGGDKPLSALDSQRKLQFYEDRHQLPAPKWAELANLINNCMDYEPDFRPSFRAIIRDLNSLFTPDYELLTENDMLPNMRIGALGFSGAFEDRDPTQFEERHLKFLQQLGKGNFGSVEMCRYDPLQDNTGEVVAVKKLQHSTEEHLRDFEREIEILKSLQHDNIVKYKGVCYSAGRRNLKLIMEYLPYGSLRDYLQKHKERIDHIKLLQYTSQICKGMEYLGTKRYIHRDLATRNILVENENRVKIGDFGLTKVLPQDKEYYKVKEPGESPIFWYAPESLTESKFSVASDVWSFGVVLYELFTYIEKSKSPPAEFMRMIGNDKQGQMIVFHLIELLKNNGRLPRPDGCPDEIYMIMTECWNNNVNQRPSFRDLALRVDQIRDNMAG
UniProt P29597: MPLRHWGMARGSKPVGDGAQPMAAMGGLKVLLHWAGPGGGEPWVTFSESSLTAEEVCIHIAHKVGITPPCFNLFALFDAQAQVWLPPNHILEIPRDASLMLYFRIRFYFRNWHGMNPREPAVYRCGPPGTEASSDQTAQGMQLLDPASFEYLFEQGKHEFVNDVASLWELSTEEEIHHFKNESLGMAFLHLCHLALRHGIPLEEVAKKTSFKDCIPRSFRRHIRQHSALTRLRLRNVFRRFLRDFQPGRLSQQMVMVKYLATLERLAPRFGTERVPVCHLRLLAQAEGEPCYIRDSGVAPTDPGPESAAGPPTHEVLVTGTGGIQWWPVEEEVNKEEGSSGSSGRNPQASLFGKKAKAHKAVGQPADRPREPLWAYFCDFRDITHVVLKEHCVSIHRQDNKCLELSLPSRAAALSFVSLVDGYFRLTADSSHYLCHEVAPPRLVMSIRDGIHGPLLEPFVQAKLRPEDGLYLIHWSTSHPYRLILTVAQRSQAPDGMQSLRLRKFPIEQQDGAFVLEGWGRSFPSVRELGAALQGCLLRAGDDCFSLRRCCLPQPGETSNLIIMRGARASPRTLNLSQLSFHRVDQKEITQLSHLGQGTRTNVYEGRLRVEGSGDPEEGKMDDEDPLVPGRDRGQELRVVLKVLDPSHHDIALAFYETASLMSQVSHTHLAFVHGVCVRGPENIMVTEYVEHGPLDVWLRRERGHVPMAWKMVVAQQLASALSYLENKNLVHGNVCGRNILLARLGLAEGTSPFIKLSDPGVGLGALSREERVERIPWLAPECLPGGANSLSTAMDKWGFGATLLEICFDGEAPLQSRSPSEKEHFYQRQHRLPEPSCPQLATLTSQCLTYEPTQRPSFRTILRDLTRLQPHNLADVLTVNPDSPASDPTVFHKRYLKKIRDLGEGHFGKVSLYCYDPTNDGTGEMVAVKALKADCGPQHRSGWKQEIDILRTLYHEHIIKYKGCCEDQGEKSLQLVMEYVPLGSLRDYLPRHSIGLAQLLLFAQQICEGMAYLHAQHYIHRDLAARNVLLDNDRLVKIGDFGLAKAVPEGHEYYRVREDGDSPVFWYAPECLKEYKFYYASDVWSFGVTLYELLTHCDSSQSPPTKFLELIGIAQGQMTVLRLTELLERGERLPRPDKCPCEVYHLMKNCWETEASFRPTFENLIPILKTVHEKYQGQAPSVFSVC

Tests used:
[1] = molecular target: Tyrosine-protein kinase JAK1 (Homo sapiens, UniProt P23458)
[2] = molecular target: Tyrosine-protein kinase JAK2 (Homo sapiens, UniProt O60674)
[3] = molecular target: Non-receptor tyrosine-protein kinase TYK2 (Homo sapiens, UniProt P29597)

Row | Structure (SMILES) | IC50 [1] | IC50 [2] | IC50 [3]
1 | NC(=O)c1cnc2[nH]ccc2c1NC1CCN(Cc2ccccc2)CC1 | 88 nM |  | 
2 | CNC(=O)c1cnc2[nH]ccc2c1NC1CCN(Cc2ccccc2)CC1 |  | 660 nM | 
3 | CNC(=O)c1cnc2[nH]ccc2c1N[C@@H]1CCN(Cc2ccccc2)[C@@H](C)C1 (relative stereo) |  | 179 nM | 
4 | CNC(=O)c1cnc2[nH]ccc2c1N[C@@H]1CCN(Cc2cccc(OC)c2)C[C@@H]1F (relative stereo) |  |  | 116 nM
5 | CNC(=O)c1cnc2[nH]ccc2c1N[C@@H]1CCN(Cc2cccc(OC)c2)[C@@H](C)C1 (relative stereo) |  | 88.5 nM | 
6 | CNC(=O)c1cnc2[nH]ccc2c1N[C@@H]1CCN(Cc2ccc(OC)cc2)[C@H](C)C1 (relative stereo) |  | 63.2 nM | 

Results, then the molecule that gave them:

Row | IC50 [1] | IC50 [2] | IC50 [3] | Structure (SMILES)
7 |  | 28.4 nM |  | CNC(=O)c1cnc2[nH]ccc2c1N[C@@H]1CCN(Cc2cccc(OC)c2)[C@H](C)C1 (relative stereo)
8 | 17 nM | 28 nM | 308 nM | CNC(=O)c1cnc2[nH]ccc2c1N[C@@H]1CCN(Cc2cccc(Cl)c2)C[C@H]1F (relative stereo)
